Tested on: MG-63
Experiment: Antimigratory activity in human MG63 cells at 5 uM measured at 6 to 10 hrs by wound-healing assay relative to control
Type: functional

CC/C=C\C/C=C\C/C=C\CC1OC1C/C=C\C/C=C\CCC(=O)NCCO (stereo unspecified)
fold change (FC): 1 - 2

From ChEMBL document CHEMBL4138311, “Antitumorigenic Properties of Omega-3 Endocannabinoid Epoxides” (J Med Chem, 2018)
